Key:
[1] = system: human tumor-infiltrating lymphocytes (TIL); test: Expansion of TIL ex vivo from human tumor fragments (pre-REP, 24-well plate); type: cell-based; details: 6000 IU/mL
Procedure: Samples of human ovarian and colon tumors were obtained from the Cooperative Human Tissue Network (CHTN, c/o Vanderbilt University Medical Center, Nashville, Tenn.). Solid tumor specimens were carefully dissected free of surrounding fatty and necrotic areas. The tumors were sliced into 8 mm^3 (2×2×2 mm^3) fragments under sterile conditions using a scalpel and a scalpel holder.
(§1) For TIL generation, single 8 mm^3 tumor fragments were added to each well of a 24-well plate containing 2 mL RPMI medium containing 25 mM HEPES, 10% heat inactivated human AB serum, 100 U/mL penicillin, 100 μg/ml streptomycin, 2 mM L-glutamine, 10 μg/ml gentamycin and 0.25 μg/ml Fungizone (Complete Medium; CM) with either 6000 IU/mL IL-2 in the presence or absence of 0.1-10 μM of a Cbl inhibitor, or with 0.1-10 μM of the Cbl inhibitor alone. The plates were placed in a humidified 37° C. incubator with 5% CO2. Half of the medium was replaced every two days after culture initiation. As wells became confluent, the contents were mixed vigorously, split into two daughter wells, and filled to 2 mL per well with RPMI medium with either 6000 IU/mL IL-2 in the presence or absence of 0.1-10 μM of the Cbl inhibitor, or with 0.1-10 μM of the Cbl inhibitor alone. Subsequently, half the media was replaced thrice weekly, cultures were split to maintain a cell density of 1×10^6 cells/mL. […] Mitochondrial markers including, Mitotracker, Mitoprobe, and 2-NBDG may also be used to assess differentiation and/or activation of cells. The initial TIL generation step may be shortened from 28 days to between about 7-11 days with similar results.
The data in Figures and Tables 2-7 are with compound 103. […] For this reason, the total cell numbers are shown in Table 2 as a percentage of the IL-2 alone condition. […] FIGS. 4A-4D show the average numbers of cells with IL-2 alone; with 0.1, 1, or 10 μM of Cbl inhibitor; or IL-2 in combination with 0.1, 1, or 10 μM of Cbl inhibitor with ovary TIL and colon TIL. […] Thus, Cbl inhibitors support cell viability in the absence of IL 2 and enhance the effects of IL-2 in some tumor samples.

[2] = system: human tumor-infiltrating lymphocytes (TIL); test: Rapid Expansion Protocol (REP) of TIL; type: cell-based; details: 6000 IU/mL
Procedure: Rapid Expansion Protocol (REP) used OKT3 (anti-CD3) antibody (Thermo Fisher Scientific) and IL-2 in the presence of irradiated, allogeneic feeder cells (Astarte Biologics) at a 200:1 ratio of feeder cells to responding TIL cells. PBMC, OKT3 antibody (30 ng/mL), complete medium (“CM”), AIM V media (GIBCO/BRL), and TIL effector cells were combined, mixed, and aliquoted to a 75 cm^2 tissue culture flask. Flasks were incubated upright at 37° C. in 5% CO2. IL-2 (6000 IU/mL) and/or Cbl inhibitor (0.1, 1, 10 μM) were added on day 2. On day 5, culture supernatant was removed by aspiration and media was replaced with a 1:1 mixture of CM/AIM V containing 6000 IU/mL IL-2 and/or Cbl inhibitor. On day 6, and every day thereafter, cell concentration was determined, and cells were split into additional flasks with additional medium containing 6000 CU/mL IL-2/Cbl inhibitor as needed to maintain cell densities around 1×10^6 cells/mL. About 14 days after initiation of the REP, cells were harvested and cryopreserved for future experimental analysis.
Only TIL that expanded during the pre-REP protocol were further expanded in the REP protocol: TIL1, TIL3, TIL4 & TIL6. The magnitude of TIL expansion during the REP varied between the tumor samples. For this reason, the total cell numbers are shown in Table 3 as a percentage of the IL-2 alone condition during the REP expansion protocol.

[3] = system: human tumor-infiltrating lymphocytes (TIL); test: Flow cytometry immunophenotyping of expanded TIL (lineage and memory markers); type: cell-based
Procedure: as §1
T lymphocytes were defined based on lineage and differentiation marker expression according to the developmental model (Restifo, Blood, 124:476-477, 2014), as shown in Table 4. […] Monocytes (CD14+), B cells (CD20+) and NK cells (CD56+) accounted for <10% of the total number of cells.

[4] = system: human T cells from peripheral blood mononuclear cells; test: Expansion of CMV pp65 reactive T cells from peripheral blood mononuclear cells; type: cell-based
Procedure: (§2) CMV pp65 (495-503) reactive T cells were expanded by thawing CMV seropositive donors (Conversant) and 2×10^6 cells/ml were resuspended in RPMI medium (Gibco) supplemented with 1% GlutaMax (Gibco), 1% non-essential amino acids (NEAA), penicillin/streptomycin (Gibco), 10% heat inactivated human AB serum (Corning), 1 μg/ml CMV pp65 (495-503) (Anaspec), 2 ng/mL IL-2 (R&D), and/or Cbl inhibitor (01, 1, 10 μM). PBMCs were cultured for eight days with IL-2 and/or Cbl inhibitor and replenished at day three and day five. At day eight, cells were harvested, and re-plated in low dose IL-2 (100 U/ml) and/or Cbl inhibitor at 2 million/ml in complete RPMI media for two days. At day eleven, cells were pooled and counted, and immunophenotyped at day 11 by flow cytometry by measuring expression of lineage (CD4, CD8) and differentiation (including CD45RA, CD45RO, CD95, CCR7, CD62L, TCF1, PD-1, TIM3, LAG3) markers.

[5] = system: human T cells from donor PBMC; test: Flow cytometry immunophenotyping of T cells expanded from donor PBMC; type: cell-based; details: IL-2 alone
Procedure: as §2
T lymphocytes were defined based on lineage and differentiation marker expression according to the developmental model (Restifo, Blood, 124:476-477, 2014), as shown in Table 4.

human CD4/8+ T cells = test: Intracellular IFN-γ in expanded T cells after PMA/ionomycin stimulation; type: cell-based; details: 25 ng/mL PMA and 0.5 μM ionomycin, 6 h
Procedure: T cell activity was determined by analysis of cytokine secretion. To investigate whether these expanded T cells are capable of responding to extracellular stimulation, T cells were stimulated with 25 ng/mL phorbol myristate acetate (PMA) and 0.5 μM ionomycin. After 90 min of stimulation, monensin, 1:50, (GolgiStop, BD Biosciences) was added. After 6 h, cells were stained for surface expression of CD4+, CD8+, CD45RA+, CD95+, CCR7+, CD62L+, and subsequently, fixed, permeabilized and stained for intracellular cytokine, IFN-7. After 6 hr, we observed a clear increase in accumulated intracellular IFN-γ, an important effector of the anti-tumor response when T cells had been expanded with IL-2 and Cbl inhibitor.

CD8+ and CD4+ TIL = test: CD107a mobilization and granzyme B in pre-REP TIL after anti-CD3/CD28 stimulation; type: cell-based, human
Procedure: To investigate whether expanded TIL are capable of responding to extracellular stimulation, TIL were stimulated with anti-CD3/CD28 for 6 hours in the presence of secretion inhibitors and anti-CD107a. […] Upon stimulation, an average of 40% of CD8^+ TIL expanded with IL2 were positive for CD107A expression, and greater than 60% of CD8+ TIL expanded with IL2+ compound 103 were capable of producing CD107a (FIG. 27A). Upon stimulation, an average of 50% of CD4+ TIL expanded with IL2 were positive for CD107A expression, and greater than 60% of CD4+ TIL expanded with IL2+ compound 103 were capable of producing CD107a (FIG. 27B).
In the context of cytotoxicity, granzyme B (Grb), a protease secreted to mediate apoptosis, was assessed. […] From this, we conclude that Cbl inhibitor appears to expand TIL with increased cytotoxic potential.

Substance: IL-2: cytokine used as standard culture condition for immune cell expansion (6000 IU/mL TIL, 2 ng/mL PBMC, 300 IU OT-1)
- Percentage of total cell number relative to IL-2 alone on day 17 ([1]; TIL1 (ovary)): 100%
- Percentage of total cell number relative to IL-2 alone on day 17 ([1]; TIL2 (ovary)): 100%
- Percentage of total cell number relative to IL-2 alone on day 17 ([1]; TIL3 (ovary)): 100%
- Percentage of total cell number relative to IL-2 alone on day 17 ([1]; TIL4 (colon)): 100%
- Percentage of total cell number relative to IL-2 alone on day 17 ([1]; TIL5 (ovary)): 100%
- Percentage of total cell number relative to IL-2 alone on day 17 ([1]; TIL6 (ovary)): 100%
- Percentage of total cell number relative to IL-2 alone on day 42 (Pre-REP and REP) ([2]; TIL1 (ovary)): 100%
- Percentage of total cell number relative to IL-2 alone on day 42 (Pre-REP and REP) ([2]; TIL3 (ovary)): 100%
- Percentage of total cell number relative to IL-2 alone on day 42 (Pre-REP and REP) ([2]; TIL4 (colon)): 100%
- Percentage of total cell number relative to IL-2 alone on day 42 (Pre-REP and REP) ([2]; TIL6 (ovary)): 100%
- CD4 TCM CD62L+ CCR7+, percentage of total TIL cell number on day 28 ([3]; TIL1 population, IL-2 alone): 1.8%
- CD4 TEM CD62L− CCR7−, percentage of total TIL cell number on day 28 ([3]; TIL1 population, IL-2 alone): 48.9%
- CD8 TCM CD62L+ CCR7+, percentage of total TIL cell number on day 28 ([3]; TIL1 population, IL-2 alone): 4.2%
- CD8 TEM CD62L− CCR7−, percentage of total TIL cell number on day 28 ([3]; TIL1 population, IL-2 alone): 48.7%
- Expansion of CD8+ versus CD4+ T lymphocytes in TIL culture ([3]; tumor sample, FIG. 7): essentially equivalent numbers of CD4+ and CD8+ T lymphocytes
- Percentage of total cell number relative to IL-2 alone on day 11 ([4]; Donor 1, 2 ng/mL): 100%
- Percentage of total cell number relative to IL-2 alone on day 11 ([4]; Donor 2, 2 ng/mL): 100%
- Percentage of total cell number relative to IL-2 alone on day 11 ([4]; Donor 3, 2 ng/mL): 100%
- CD4 TCM, percentage of total cell number on day 11 [5]: 43.2%
- CD4 TEM, percentage of total cell number on day 11 [5]: 24.9%
- CD4 TsCM, percentage of total cell number on day 11 [5]: 16.9%
- CD8 TCM, percentage of total cell number on day 11 [5]: 25.4%
- CD8 TEM, percentage of total cell number on day 11 [5]: 11%
- CD8 TsCM, percentage of total cell number on day 11 [5]: 39.9%
- CD4/8+ T cells positive for IFN-γ expression (human CD4/8+ T cells): approximately 50%
- CD8+ TIL positive for CD107A expression (CD8+ and CD4+ TIL; anti-CD3/CD28 for 6 hours (FIG. 27A)): 40%
- CD4+ TIL positive for CD107A expression (CD8+ and CD4+ TIL; anti-CD3/CD28 for 6 hours (FIG. 27B)): 50%

— US12594263B2, “CBL inhibitors and compositions for expansion of immune cells” (Nurix Therapeutics, Inc., priority 2019, dated 2026)
